According to publication PMC10008561 (Nature Communications, 2023):
Values joined by “and” are separate entries in the source; they are usually repeats but may differ in a detail not shown here. Equal values may be shown once. Read-outs that look alike come from different tables or passages of the source.

The chains behind the UniProt entries cited, without tags or fusion partners.
UniProt P41145, whole entry Q115N: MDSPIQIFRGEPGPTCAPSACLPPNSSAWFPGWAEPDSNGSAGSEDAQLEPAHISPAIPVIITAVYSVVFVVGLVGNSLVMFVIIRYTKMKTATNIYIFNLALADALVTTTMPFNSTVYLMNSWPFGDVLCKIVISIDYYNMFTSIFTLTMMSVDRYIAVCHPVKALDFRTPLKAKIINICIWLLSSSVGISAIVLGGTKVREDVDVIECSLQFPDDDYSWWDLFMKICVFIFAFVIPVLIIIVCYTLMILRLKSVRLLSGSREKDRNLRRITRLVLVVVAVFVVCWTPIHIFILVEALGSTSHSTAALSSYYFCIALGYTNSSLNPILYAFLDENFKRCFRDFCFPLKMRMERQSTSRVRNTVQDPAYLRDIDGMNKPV
UniProt P41145, whole entry W287A: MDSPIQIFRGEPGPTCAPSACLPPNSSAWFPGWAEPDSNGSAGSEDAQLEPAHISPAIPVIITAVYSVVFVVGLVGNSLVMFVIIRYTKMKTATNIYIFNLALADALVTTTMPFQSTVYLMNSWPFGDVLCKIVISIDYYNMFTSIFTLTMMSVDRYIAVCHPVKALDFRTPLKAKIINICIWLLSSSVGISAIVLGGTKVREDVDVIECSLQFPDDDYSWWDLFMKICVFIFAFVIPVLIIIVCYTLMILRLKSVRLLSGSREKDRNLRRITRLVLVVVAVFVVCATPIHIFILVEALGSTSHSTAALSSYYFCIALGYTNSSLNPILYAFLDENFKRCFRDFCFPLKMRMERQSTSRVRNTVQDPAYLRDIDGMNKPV
UniProt P41145, whole entry E297A: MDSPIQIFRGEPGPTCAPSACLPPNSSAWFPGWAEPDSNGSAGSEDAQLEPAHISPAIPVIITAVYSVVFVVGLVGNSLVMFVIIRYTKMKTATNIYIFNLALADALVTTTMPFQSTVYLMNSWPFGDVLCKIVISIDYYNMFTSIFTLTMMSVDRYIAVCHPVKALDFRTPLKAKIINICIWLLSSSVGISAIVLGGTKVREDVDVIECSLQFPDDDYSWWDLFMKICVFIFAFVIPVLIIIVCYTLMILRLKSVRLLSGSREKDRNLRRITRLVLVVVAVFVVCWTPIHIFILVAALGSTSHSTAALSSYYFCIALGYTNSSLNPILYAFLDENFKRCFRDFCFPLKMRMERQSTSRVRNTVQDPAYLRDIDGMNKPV
UniProt P41145, whole entry K227A: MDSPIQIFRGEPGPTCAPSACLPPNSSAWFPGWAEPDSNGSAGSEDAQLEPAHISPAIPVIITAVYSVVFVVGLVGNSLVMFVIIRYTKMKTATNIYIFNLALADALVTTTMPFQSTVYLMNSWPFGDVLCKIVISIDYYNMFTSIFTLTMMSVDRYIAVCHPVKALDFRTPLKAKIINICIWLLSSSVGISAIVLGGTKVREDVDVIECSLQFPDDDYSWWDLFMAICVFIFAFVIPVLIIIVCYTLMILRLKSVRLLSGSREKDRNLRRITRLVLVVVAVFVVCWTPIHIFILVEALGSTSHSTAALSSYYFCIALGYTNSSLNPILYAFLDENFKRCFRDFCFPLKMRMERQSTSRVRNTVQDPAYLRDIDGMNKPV
UniProt P41145, whole entry N322A: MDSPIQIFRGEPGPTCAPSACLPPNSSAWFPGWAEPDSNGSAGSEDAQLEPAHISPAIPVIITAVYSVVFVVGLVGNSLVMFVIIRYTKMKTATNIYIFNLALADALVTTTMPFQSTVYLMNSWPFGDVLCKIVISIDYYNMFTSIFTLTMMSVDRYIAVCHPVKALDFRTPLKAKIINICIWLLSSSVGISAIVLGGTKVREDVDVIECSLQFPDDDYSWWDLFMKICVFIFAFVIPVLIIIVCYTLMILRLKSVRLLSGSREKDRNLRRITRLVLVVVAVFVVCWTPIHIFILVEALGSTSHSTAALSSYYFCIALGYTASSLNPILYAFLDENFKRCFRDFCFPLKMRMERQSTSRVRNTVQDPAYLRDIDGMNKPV
UniProt P41145, whole entry D105A: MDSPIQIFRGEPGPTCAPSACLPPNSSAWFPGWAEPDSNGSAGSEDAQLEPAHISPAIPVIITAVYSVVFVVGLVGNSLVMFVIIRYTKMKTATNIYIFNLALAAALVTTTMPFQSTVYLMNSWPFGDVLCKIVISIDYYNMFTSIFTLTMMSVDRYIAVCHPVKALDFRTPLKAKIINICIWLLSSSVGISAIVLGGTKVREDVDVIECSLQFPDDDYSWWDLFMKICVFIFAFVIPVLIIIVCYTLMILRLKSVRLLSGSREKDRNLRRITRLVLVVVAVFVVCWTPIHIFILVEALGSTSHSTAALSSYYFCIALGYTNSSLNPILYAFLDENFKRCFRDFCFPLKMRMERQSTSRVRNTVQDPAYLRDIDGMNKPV
UniProt P41145, whole entry R274A: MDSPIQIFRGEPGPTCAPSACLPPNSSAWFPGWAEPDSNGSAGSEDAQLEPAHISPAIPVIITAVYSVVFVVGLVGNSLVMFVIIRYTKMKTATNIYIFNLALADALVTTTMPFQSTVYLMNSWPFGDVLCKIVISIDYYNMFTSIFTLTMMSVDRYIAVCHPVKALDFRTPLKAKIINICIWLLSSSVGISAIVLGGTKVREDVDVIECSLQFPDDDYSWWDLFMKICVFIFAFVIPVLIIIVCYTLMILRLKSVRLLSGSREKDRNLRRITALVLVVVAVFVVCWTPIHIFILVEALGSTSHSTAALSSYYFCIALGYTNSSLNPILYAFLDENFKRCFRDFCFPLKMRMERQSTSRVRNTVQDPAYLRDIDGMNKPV
UniProt P41145, whole entry Y139L: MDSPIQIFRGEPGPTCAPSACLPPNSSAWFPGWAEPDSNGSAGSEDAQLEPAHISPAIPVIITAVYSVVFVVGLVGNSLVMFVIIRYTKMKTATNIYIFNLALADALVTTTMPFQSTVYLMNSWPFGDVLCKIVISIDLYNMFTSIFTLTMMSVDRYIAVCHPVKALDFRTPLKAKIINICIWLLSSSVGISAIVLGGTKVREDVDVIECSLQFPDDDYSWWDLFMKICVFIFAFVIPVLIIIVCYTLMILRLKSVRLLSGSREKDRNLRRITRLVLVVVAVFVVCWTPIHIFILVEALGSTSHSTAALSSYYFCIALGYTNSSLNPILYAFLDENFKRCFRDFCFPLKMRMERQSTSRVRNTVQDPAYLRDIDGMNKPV
UniProt P41145, whole entry F114L: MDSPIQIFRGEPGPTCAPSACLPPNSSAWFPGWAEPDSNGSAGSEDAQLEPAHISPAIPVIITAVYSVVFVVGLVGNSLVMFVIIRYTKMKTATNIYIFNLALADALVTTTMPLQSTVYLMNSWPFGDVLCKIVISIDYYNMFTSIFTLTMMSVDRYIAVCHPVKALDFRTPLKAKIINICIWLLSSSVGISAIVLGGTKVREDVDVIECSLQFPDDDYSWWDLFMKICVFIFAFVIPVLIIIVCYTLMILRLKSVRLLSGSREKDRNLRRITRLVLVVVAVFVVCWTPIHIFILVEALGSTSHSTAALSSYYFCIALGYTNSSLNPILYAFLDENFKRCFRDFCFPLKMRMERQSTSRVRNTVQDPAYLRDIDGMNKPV
UniProt P41145, whole entry R170A: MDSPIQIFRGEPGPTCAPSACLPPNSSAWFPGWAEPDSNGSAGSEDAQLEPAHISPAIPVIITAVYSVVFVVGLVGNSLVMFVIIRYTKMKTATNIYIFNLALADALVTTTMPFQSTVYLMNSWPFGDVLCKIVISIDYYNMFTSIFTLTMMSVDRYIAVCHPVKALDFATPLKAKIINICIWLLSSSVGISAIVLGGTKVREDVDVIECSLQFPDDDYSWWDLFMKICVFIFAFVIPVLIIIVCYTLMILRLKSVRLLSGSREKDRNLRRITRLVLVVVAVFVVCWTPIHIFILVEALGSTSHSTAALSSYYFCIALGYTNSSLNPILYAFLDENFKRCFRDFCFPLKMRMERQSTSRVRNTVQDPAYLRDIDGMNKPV
UniProt P41145, whole entry R257A: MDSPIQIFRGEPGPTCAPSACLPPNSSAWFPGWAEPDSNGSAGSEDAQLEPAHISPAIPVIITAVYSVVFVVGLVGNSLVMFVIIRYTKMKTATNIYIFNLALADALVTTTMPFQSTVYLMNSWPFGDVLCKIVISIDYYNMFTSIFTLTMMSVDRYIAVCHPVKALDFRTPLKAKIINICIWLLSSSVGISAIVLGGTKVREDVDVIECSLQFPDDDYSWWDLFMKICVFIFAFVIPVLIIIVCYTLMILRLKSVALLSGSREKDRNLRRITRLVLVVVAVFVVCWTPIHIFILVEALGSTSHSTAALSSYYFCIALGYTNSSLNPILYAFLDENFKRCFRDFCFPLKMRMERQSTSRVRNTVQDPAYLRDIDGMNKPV
UniProt P41145, whole entry Y320L: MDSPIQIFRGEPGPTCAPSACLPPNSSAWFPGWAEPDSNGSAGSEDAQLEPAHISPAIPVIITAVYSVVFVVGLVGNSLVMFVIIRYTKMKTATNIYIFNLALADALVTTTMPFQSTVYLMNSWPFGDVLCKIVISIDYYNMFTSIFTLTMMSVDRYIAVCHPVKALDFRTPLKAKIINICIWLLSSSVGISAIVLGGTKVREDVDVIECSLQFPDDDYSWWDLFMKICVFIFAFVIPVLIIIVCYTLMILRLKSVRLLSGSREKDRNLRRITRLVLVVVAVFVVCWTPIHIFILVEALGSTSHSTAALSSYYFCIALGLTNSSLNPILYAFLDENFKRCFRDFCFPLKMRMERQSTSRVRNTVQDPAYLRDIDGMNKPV
UniProt P41145, whole entry D266A: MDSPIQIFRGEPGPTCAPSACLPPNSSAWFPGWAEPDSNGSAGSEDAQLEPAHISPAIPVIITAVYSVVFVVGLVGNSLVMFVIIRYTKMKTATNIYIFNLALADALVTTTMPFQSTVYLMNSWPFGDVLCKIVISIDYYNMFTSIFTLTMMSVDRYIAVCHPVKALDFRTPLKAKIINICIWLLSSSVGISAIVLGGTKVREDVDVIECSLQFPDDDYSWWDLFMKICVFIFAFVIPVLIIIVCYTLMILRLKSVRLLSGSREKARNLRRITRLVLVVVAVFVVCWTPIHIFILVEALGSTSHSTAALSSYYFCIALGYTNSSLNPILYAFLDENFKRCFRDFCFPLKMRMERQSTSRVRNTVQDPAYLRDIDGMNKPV
UniProt P41145, whole entry R271A: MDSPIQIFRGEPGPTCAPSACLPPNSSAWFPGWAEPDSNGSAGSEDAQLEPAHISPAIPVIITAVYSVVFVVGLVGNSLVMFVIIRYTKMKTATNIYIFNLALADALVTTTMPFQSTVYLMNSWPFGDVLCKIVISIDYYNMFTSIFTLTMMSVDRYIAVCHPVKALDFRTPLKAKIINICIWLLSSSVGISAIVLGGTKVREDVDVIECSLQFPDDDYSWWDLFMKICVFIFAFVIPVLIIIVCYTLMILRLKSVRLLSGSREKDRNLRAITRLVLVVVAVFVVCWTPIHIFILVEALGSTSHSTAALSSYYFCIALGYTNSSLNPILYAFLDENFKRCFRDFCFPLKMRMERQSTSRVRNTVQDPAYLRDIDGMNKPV
UniProt P41145, whole entry G319L: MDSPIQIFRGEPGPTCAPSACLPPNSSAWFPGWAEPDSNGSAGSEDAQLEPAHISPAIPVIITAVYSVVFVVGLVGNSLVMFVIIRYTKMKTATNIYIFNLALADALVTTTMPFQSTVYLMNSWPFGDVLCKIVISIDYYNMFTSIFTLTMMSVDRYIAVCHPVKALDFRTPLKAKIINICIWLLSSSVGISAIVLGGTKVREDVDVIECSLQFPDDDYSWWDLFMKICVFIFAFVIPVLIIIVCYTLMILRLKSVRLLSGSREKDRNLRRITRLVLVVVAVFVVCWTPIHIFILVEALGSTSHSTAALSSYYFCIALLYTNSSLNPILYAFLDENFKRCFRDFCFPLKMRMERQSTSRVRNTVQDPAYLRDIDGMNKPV
UniProt P41145, whole entry T94V: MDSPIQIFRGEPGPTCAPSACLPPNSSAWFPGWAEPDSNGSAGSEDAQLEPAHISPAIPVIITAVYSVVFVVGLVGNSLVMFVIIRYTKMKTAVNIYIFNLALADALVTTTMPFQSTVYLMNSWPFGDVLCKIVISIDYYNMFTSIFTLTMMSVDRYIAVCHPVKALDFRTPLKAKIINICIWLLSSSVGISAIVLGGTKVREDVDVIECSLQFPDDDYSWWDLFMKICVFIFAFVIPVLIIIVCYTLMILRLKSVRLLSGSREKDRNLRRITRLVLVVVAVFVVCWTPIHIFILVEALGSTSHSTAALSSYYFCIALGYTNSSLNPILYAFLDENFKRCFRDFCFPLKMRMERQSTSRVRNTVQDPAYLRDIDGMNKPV
UniProt P41145, whole entry D138A: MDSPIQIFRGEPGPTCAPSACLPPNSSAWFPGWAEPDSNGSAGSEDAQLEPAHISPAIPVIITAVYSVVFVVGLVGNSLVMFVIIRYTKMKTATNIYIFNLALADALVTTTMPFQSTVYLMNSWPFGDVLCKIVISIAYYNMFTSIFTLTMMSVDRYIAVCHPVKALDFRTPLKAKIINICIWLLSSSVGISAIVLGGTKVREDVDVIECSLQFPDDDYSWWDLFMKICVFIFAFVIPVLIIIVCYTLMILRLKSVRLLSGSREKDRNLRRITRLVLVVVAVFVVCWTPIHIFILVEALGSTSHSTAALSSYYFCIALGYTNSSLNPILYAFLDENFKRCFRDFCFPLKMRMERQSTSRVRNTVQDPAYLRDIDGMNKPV

How the values were obtained:
[1] = target: T1, human KOR (Gi1) (Homo sapiens, UniProt P41145); assay: cell-based; conditions: pEC50
T1 construct: expressed in transfected cells; host or cells: HEK293T

[2] = target: T2, human KOR (Gi2) (Homo sapiens, UniProt P41145); assay: cell-based
T2 construct: expressed in transfected cells; host or cells: HEK293T

[3] = target: T3, human KOR (Gi3) (Homo sapiens, UniProt P41145); assay: cell-based
T3 construct: expressed in transfected cells; host or cells: HEK293T

[4] = target: T4, human KOR (GoA) (Homo sapiens, UniProt P41145); assay: cell-based
T4 construct: expressed in transfected cells; host or cells: HEK293T

[5] = target: T5, human KOR (GoB) (Homo sapiens, UniProt P41145); assay: cell-based
T5 construct: expressed in transfected cells; host or cells: HEK293T

[6] = target: T6, human KOR (Gz) (Homo sapiens, UniProt P41145); assay: cell-based
T6 construct: expressed in transfected cells; host or cells: HEK293T

[7] = target: T7, human KOR (Gustducin) (Homo sapiens, UniProt P41145); assay: cell-based
T7 construct: expressed in transfected cells; host or cells: HEK293T

[8] = target: T8, human KOR (β-arrestin 1) (Homo sapiens, UniProt P41145); assay: cell-based
T8 construct: expressed in transfected cells; host or cells: HEK293T

[9] = target: T9, human KOR (β-arrestin 2) (Homo sapiens, UniProt P41145); assay: cell-based; conditions: pEC50
T9 construct: expressed in transfected cells; host or cells: HEK293T

[10] = target: T10, KOR (Homo sapiens, UniProt P41145); assay: cell-based; conditions: potency in G protein activation
[11] = target: T11, human KOR (Homo sapiens, UniProt P41145, Q115N); assay: cell-based; conditions: pEC50
T11 construct: expressed in transfected cells; host or cells: HEK 293T (ATCC, CRL-3216)

[12] = target: T12, human KOR (Homo sapiens, UniProt P41145, W287A); assay: cell-based; conditions: pEC50
T12 construct: expressed in transfected cells; host or cells: HEK 293T (ATCC, CRL-3216)

[13] = target: T11, human KOR; assay: cell-based; conditions: pEC50; remark: listed apart in the source
[14] = target: T12, human KOR; assay: cell-based; conditions: pEC50; remark: listed apart in the source
[15] = target: T10, KOR; assay: cell-based; set-up: expressed in transfected cells; host or cells: HEK 293T (ATCC, CRL-3216); conditions: for activation at 0.01 µM / activation at […]: HEK-293T
[16] = target: T10, KOR; assay: cell-based; set-up: expressed in transfected cells; host or cells: HEK 293T (ATCC, CRL-3216)
[17] = target: T13, human KOR (Gi1) (Homo sapiens, UniProt P41145, E297A); assay: cell-based; conditions: HEK-293T
T13 construct: expressed in transfected cells; host or cells: HEK293T

[18] = target: T14, human KOR (Gi1) (Homo sapiens, UniProt P41145, K227A); assay: cell-based; conditions: HEK-293T
T14 construct: expressed in transfected cells; host or cells: HEK293T

[19] = target: T15, human KOR (Gi1) (Homo sapiens, UniProt P41145, N322A); assay: cell-based; conditions: HEK-293T
T15 construct: expressed in transfected cells; host or cells: HEK293T

[20] = target: T16, human KOR (Gi2) (Homo sapiens, UniProt P41145, D105A); assay: cell-based
T16 construct: expressed in transfected cells; host or cells: HEK293T

[21] = target: T17, human KOR (Gi2) (Homo sapiens, UniProt P41145, R274A); assay: cell-based
T17 construct: expressed in transfected cells; host or cells: HEK293T

[22] = target: T18, human KOR (Gi2) (Homo sapiens, UniProt P41145, Y139L); assay: cell-based; conditions: HEK-293T
T18 construct: expressed in transfected cells; host or cells: HEK293T

[23] = target: T19, human KOR (Gi3) (Homo sapiens, UniProt P41145, F114L); assay: cell-based; conditions: HEK-293T
T19 construct: expressed in transfected cells; host or cells: HEK293T

[24] = target: T20, human KOR (Gi3) (Homo sapiens, UniProt P41145, R170A); assay: cell-based; conditions: HEK-293T
T20 construct: expressed in transfected cells; host or cells: HEK293T

[25] = target: T21, human KOR (GoA) (Homo sapiens, UniProt P41145, D105A); assay: cell-based; conditions: HEK-293T
T21 construct: expressed in transfected cells; host or cells: HEK293T

[26] = target: T22, human KOR (GoA) (Homo sapiens, UniProt P41145, R257A); assay: cell-based; conditions: HEK-293T
T22 construct: expressed in transfected cells; host or cells: HEK293T

[27] = target: T23, human KOR (GoA) (Homo sapiens, UniProt P41145, Y139L); assay: cell-based; conditions: HEK-293T
T23 construct: expressed in transfected cells; host or cells: HEK293T

[28] = target: T24, human KOR (GoA) (Homo sapiens, UniProt P41145, Y320L); assay: cell-based
T24 construct: expressed in transfected cells; host or cells: HEK293T

[29] = target: T25, human KOR (GoB) (Homo sapiens, UniProt P41145, D266A); assay: cell-based; conditions: HEK-293T
T25 construct: expressed in transfected cells; host or cells: HEK293T

[30] = target: T26, human KOR (GoB) (Homo sapiens, UniProt P41145, R271A); assay: cell-based; conditions: HEK-293T
T26 construct: expressed in transfected cells; host or cells: HEK293T

[31] = target: T27, human KOR (GoB) (Homo sapiens, UniProt P41145, Y139L); assay: cell-based; conditions: HEK-293T
T27 construct: expressed in transfected cells; host or cells: HEK293T

[32] = target: T28, human KOR (Gz) (Homo sapiens, UniProt P41145, G319L); assay: cell-based; conditions: HEK-293T
T28 construct: expressed in transfected cells; host or cells: HEK293T

[33] = target: T29, human KOR (Gz) (Homo sapiens, UniProt P41145, K227A); assay: cell-based; conditions: HEK-293T
T29 construct: expressed in transfected cells; host or cells: HEK293T

[34] = target: T30, human KOR (Gz) (Homo sapiens, UniProt P41145, R257A); assay: cell-based; conditions: HEK-293T
T30 construct: expressed in transfected cells; host or cells: HEK293T

[35] = target: T31, human KOR (Gz) (Homo sapiens, UniProt P41145, T94V); assay: cell-based; conditions: HEK-293T
T31 construct: expressed in transfected cells; host or cells: HEK293T

[36] = target: T32, human KOR (β-arrestin 1) (Homo sapiens, UniProt P41145, D266A); assay: cell-based; conditions: HEK-293T
T32 construct: expressed in transfected cells; host or cells: HEK293T

[37] = target: T33, human KOR (β-arrestin 2) (Homo sapiens, UniProt P41145, D105A); assay: cell-based; conditions: HEK-293T
T33 construct: expressed in transfected cells; host or cells: HEK293T

[38] = target: T34, human KOR (Homo sapiens, UniProt P41145, D138A); assay: cell-based; conditions: HEK-293T
T34 construct: expressed in transfected cells; host or cells: HEK 293T (ATCC, CRL-3216)

[39] = target: T35, human KOR (Homo sapiens, UniProt P41145, G319L); assay: cell-based; conditions: HEK-293T, read-out: cAMP response
T35 construct: expressed in transfected cells; host or cells: HEK 293T (ATCC, CRL-3216)

[40] = target: T36, human KOR (Homo sapiens, UniProt P41145, V134A); assay: cell-based; conditions: HEK-293T, read-out: cAMP response
T36 construct: expressed in transfected cells; host or cells: HEK 293T (ATCC, CRL-3216)

[41] = target: T37, human KOR (Homo sapiens, UniProt P41145, W124L); assay: cell-based; conditions: HEK-293T, read-out: cAMP response
T37 construct: expressed in transfected cells; host or cells: HEK 293T (ATCC, CRL-3216)

[42] = target: T34, human KOR; assay: cell-based; conditions: HTLA
[43] = target: T10, KOR
[44] = target: KOR Q115N (Homo sapiens, UniProt P41145, Q115N); assay: cell-based; set-up: TEV cleavage site (C); tTA transcription factor (C); expressed in transfected cells; host or cells: HTLA cells; conditions: read-out: Tango response (Figure S4C), KOR Q115N; Log [Drug], M -6; replicate values
[45] = read-out: KOR WT_Gi response (Figure S4D)
[46] = read-out: cAMP response (Figure S4C)

With `COC(=O)N1CCN(C(=O)Cc2ccc(Cl)c(Cl)c2)C2C(N3CCCC3)CCCC21` (stereo not drawn) [WMS-X600] the EC50 [1] was 1.41 nM and 0.282 nM, the EC50 [2] was 0.646 nM and the EC50 [3] was 0.646 nM. For the same compound, the EC50 [4] was 0.513 nM, the EC50 [5] was 0.191 nM and the EC50 [6] was 0.0977 nM. The EC50 [7] was 4.9 nM, the EC50 [8] was 52.5 nM and the EC50 [9] was 30.9 nM and 8.91 nM. For the same compound, the EC50 [10] was 108 nM, the EC50 [11] was 0.00692 nM and the EC50 [12] was 110 nM. For the same compound, the EC50 [13] was 0.0776 nM, the EC50 [14] was 302 nM and the EC50 ([15]; pEC50) was 0.105 nM and 0.102 nM and 0.132 nM. The EC50 ([16]; pEC50) was 0.468 nM and 0.372 nM and 0.513 nM.
With `CN(C(=O)/C=C/c1ccoc1)[C@@H]1CC[C@@]2(O)[C@H]3Cc4ccc(O)c5c4[C@@]2(CCN3CC2CC2)[C@H]1O5` [Nalfurafine, nalfurafine] the Emax [17] was 102%, the Emax [18] was 102% and the Emax [19] was 78.4%. For the same compound, the “FC vs wild type” value [20] was 234, the “FC vs wild type” value [21] was 102 and the Emax ([21]; HEK-293T) was 102%. The Emax [22] was 102%, the Emax [23] was 60.3% and the Emax [24] was 60.3%. It also gave an Emax [25] of 102%, an Emax [26] of 102% and an Emax [27] of 102%. The “FC vs wild type” value [28] was 457, the Emax [29] was 102% and the Emax [30] was 102%. The Emax [31] was 102%, the activation at 0.0001 µM ([6]; HEK-293T, read-out: Gz (Figure 5A concentration-response, replicate values)) was 81.7% and the Emax [32] was 115%. For the same compound, the Emax [33] was 102%, the Emax [34] was 102% and the Emax [35] was 102%. The Emax [36] was 102%, the Emax [37] was 95.4% and the Emax [38] was 102 ± 4%. It also gave an activation at 10 pM [39] of 18.2%, an activation at […] [39] of 102% and an activation at 1 pM [40] of 10.2%. For the same compound, the activation at 1 pM [41] was 8.68%, the Emax [42] was 102 ± 7% and the “increase in binding affinity” value ([43]; with Gi1) was 10 fold. For the same compound, the “increase in binding affinity” value ([43]; with Nb39) was 40 fold, the activation at 0.01 µM [15, 45] was 102% and the activation at […] [15, 45] was 101%. The activation at 0.01 µM ([15]; read-out: cAMP response) was 102%, the activation at […] ([15]; read-out: cAMP response) was 102% and the activation at 0.01 µM [15, 46] was 102%. For the same compound, the activation at […] [15, 46] was 101%, the activation at 10 µM ([16]; HTLA, read-out: Tango response) was 103% and the activation at […] ([16]; HTLA, read-out: Tango response) was 101% and 102%. It also gave an activation at […] ([16]; HTLA, read-out: Tango response (Figure S4C)) of 84.5% and an activation at 1 µM [44] of 102%.
